Data reported in patent US20220125886A1, “CO-FORMULATIONS OF AMYLIN ANALOGUES WITH INSULIN ANALOGUES FOR TREATMENT OF DIABETES” (The Board of Trustees of the Leland Stanford Junior …, priority 2019, published 2022).

Assay: Acridine orange (AO) dye displacement competitive binding assay
Conditions: unmodified CB[7] 6 μM, one-site competitive binding model, H2O, read-out: equilibrium dissociation constant / binding affinity to CB[7]
Description: NOVOLOG® samples were diluted to concentrations of 0, 0.01, 0.1, 0.3, 0.5, 1, 1.5, 2, 3, 4 μM in H2O. […] Samples were incubated overnight in light-free conditions, and fluorescent spectra were collected on an BioTek SynergyH1 microplate reader, exciting at 485 nm and collecting the resulting fluorescent spectra from 495 to 650 nm.

CC[C@H](C)[C@H](NC(=O)[C@@H]1CCCN1C(=O)CNC(=O)[C@H](Cc1ccccc1)NC(=O)[C@H](CC(N)=O)NC(=O)[C@H](CC(N)=O)NC(=O)[C@H](CO)NC(=O)[C@H](CO)NC(=O)[C@H](Cc1c[nH]cn1)NC(=O)[C@@H](NC(=O)[C@H](CC(C)C)NC(=O)[C@H](Cc1ccccc1)NC(=O)[C@H](CC(N)=O)NC(=O)[C@H](C)NC(=O)[C@H](CC(C)C)NC(=O)[C@H](CCCNC(=N)N)NC(=O)[C@H](CCC(N)=O)NC(=O)[C@@H](NC(=O)[C@H](C)NC(=O)[C@@H]1CSSC[C@H](NC(=O)[C@@H](N)CCCCN)C(=O)N[C@@H](CC(N)=O)C(=O)N[C@@H]([C@@H](C)O)C(=O)N[C@@H](C)C(=O)N[C@@H]([C@@H](C)O)C(=O)N1)[C@@H](C)O)C(C)C)C(=O)N[C@@H](CC(C)C)C(=O)N1CCC[C@H]1C(=O)N1CCC[C@H]1C(=O)N[C@H](C(=O)N[C@@H](CC(N)=O)C(=O)N[C@H](C(=O)NCC(=O)N[C@@H](CO)C(=O)N[C@@H](CC(N)=O)C(=O)N[C@H](C(=O)N[C@@H](Cc1ccc(O)cc1)C(N)=O)[C@@H](C)O)C(C)C)[C@@H](C)O [pramlintide]
Kd: 38 µM
